Data on one molecule can be found in ChEMBL document CHEMBL4354804, “Discovery of a New Isoxazole-3-hydroxamate-Based Histone Deacetylase 6 Inhibitor SS-208 with Antitumor Activity in Syngeneic Melanoma Mouse Models” (J Med Chem, 2019).

For the test, the species on record is Homo sapiens. Kind of test: Selectivity index, ratio of IC50 for inhibition of human recombinant HDAC1 using fluorogenic HDAC substrate by fluorescence assay to IC50 for inhibition of human recombinant HDAC6 using fluorogenic HDAC substrate by fluorescence assay.

Regarding `CN(Cc1ccc(C(=O)NO)cc1F)CC12CC3CC(CC(C3)C1)C2`, the Ratio IC50 was over 16.
